Measurements reported in patent publication US20170189357A1, “METHODS OF LIMITING MORBIDITY IN HEMOGLOBINOPATHIES” (DUKE UNIVERSITY, priority 2014, published 2017).

Tested on: leukocytes
Test: Leukocyte adhesion in transgenic sickle cell mice after TNFα challenge
Conditions: over a period of 55 min, p<0.001

SMILES: COc1cc(F)c(F)c(Nc2ccc(I)cc2F)c1NS(=O)(=O)C1(C[C@H](O)CO)CC1 [RDEA119]
- reduction of leukocyte adhesion (0.025 mg/kg): 73%
- reduction of leukocyte adhesion (0.05 mg/kg): 99
- reduction of leukocyte adhesion (0.1 mg/kg): 97%
